Drawing on patent publication US11149062B2, “HDAC inhibitors and methods of treatment using the same” (UWM Research Foundation, Inc., priority 2015, dated 2021), this text covers IC50 for one compound.

The assay deals with T1, Recombinant human HDAC8 (Homo sapiens, UniProt Q9BY41).
T1 construct: purchased BPS Bioscience Inc
T1 sequence (Q9BY41 1-377): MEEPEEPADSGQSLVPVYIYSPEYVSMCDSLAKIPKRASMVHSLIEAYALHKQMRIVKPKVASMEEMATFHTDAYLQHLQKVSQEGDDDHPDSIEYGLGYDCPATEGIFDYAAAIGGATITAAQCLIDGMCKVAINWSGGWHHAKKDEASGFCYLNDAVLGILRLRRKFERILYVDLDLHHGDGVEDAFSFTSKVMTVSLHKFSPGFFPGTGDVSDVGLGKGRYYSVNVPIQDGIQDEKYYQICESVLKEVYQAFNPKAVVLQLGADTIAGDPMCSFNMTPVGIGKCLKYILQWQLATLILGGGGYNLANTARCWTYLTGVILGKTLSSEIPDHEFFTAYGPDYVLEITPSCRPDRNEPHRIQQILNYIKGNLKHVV
Put plainly: HDAC-Glo I/II assay, HDAC8. Format: biochemical.

Take `O=C(CCCCCCC(=O)Nc1ccccc1)NO` [SAHA, suberoyl anilide hydroxamic acid, reference compound]: the IC50 came to 7.04 µM.
